This is an account of results in US20250312474A1, “ANTHRACYCLINS AND CONJUGATES THEREOF” (priority 2022, published 2025).

As usually defined, the IC50 is the concentration at which inhibition is half-maximal.

One test has as its system NCI-N87 (Her2 3+) cells. The experiment in a line: In vitro cytotoxicity of ADCs, Example c2 (resazurin cell viability, 5 days). The format is cell-based. The following applies: ADC, 5 days incubation, 1 pM to 10 nM. Here is the method:
(§1) SK-OV-3 (Her2 3+), NCI-N87 (Her2 3+), JIMT-1 (Her2 1+) and MDA-MB-231 (Her2−) cells were plated in 96-well plates (5000 cells/well) in RPMI-1640 GlutaMAX (Invitrogen) supplemented with 10% fetal bovine serum (FBS) (Invitrogen, 150 μL/well) and incubated overnight in a humidified atmosphere at 37° C. and 5% CO2. ADCs were added in triplo in a square root of 10-fold dilution series to obtain a final concentration ranging from 1 pM to 10 nM and a final volume of 200 µL/well. The cells were incubated for 5 days in a humidified atmosphere at 37° C. and 5% CO2. The culture medium was replaced by 0.01 mg/mL resazurin (Sigma Aldrich) in RPMI-1640 GlutaMAX supplemented with 10% FBS (200 μL/well). After 4 hours in a humidified atmosphere at 37° C. and 5% CO2 the fluorescence was detected with a fluorescence plate reader (Infinite® M1000 Tecan) at 560 nm excitation and 590 nm emission. The relative fluorescent units (RFU) were normalized to cell viability percentage by setting wells without cells at 0% viability and wells with untreated cells at 100% viability. Viability was plotted using Graphpad prism software (see FIG. 17). IC50 values for ADCs on SKOV-3, N87 and JIMT-1 were calculated by non-linear regression using Graphpad prism software and are shown in the table below.

Test [1] concerns SK-OV-3 (Her2 3+) cells. Described as above. The format is cell-based. The following applies: ADC, 5 days incubation, 1 pM to 10 nM. Here is the method: as §1
For the next test, the system named is JIMT-1 (Her2 1+) cells. The test is described as above. The format is cell-based, human. The following applies: ADC, 5 days incubation, 1 pM to 10 nM. The method, then: as §1
Test [2] deals with SK-OV-3 (Her2 3+) cells. The test can be described thus: In vitro cytotoxicity of ADCs, Example c3 (resazurin cell viability, 5 days). The format is cell-based. The following applies: ADC, 5 days incubation, 1 pM to 10 nM. Here is the method:
as §1, with “BT-474 (Her2 3+), SK-OV-3” for “SK-OV-3”, “3+)” for “3+), NCI-N87 (Her2 3+), JIMT-1 (Her2 1+)”, “(Her2-)” for “(Her2−)”, “21).” for “17).”
On the technique in general: The colour change of resazurin is a common sign of viable cells or microbes.

A further test deals with BT-474 (Her2 3+) cells. The test is described as above. The format is cell-based. To be noted: ADC, 5 days incubation, 1 pM to 10 nM. Here is the method: as §1, with “BT-474 (Her2 3+), SK-OV-3” for “SK-OV-3”, “3+)” for “3+), NCI-N87 (Her2 3+), JIMT-1 (Her2 1+)”, “(Her2-)” for “(Her2−)”, “21).” for “17).”
The next test relates to NCI-N87 cells. The test can be described thus: In vitro cytotoxicity of free payloads (resazurin cell viability, 3 days). The format is cell-based. The following applies: Homo sapiens, NCI-N87, 72 h, read-out: IC50 NCI-N87 (HER2 3+). Here is the method:
SK-OV-3, NCI-N87, JIMT-1 and MDA-MB-231 cells were plated in 96-well plates (5000 cells/well) in RPMI-1640 GlutaMAX (Invitrogen) supplemented with 10% fetal bovine serum (FBS) (Invitrogen, 150 μL/well) and incubated overnight in a humidified atmosphere at 37° C. and 5% CO2. Compounds 6a, 6b, 6c, 6d and 6e were added in triplo in a square root of 10-fold dilution series to obtain a final concentration ranging from 1 pM to 10 nM (for SK-OV-3 and NCI-N87) or 10 pM to 100 nM (for JIMT-1 and MDA-MB-231) and a final volume of 200 μL/well. The cells were incubated for 3 days in a humidified atmosphere at 37° C. and 5% CO2. The culture medium was replaced by 0.01 mg/mL resazurin (Sigma Aldrich) in RPMI-1640 GlutaMAX supplemented with 10% FBS (200 μL/well). After 4 hours in a humidified atmosphere at 37° C. and 5% CO2 the fluorescence was detected with a fluorescence plate reader (Infinite® M1000 Tecan) at 560 nm excitation and 590 nm emission. The relative fluorescent units (RFU) were normalized to cell viability percentage by setting wells without cells at 0% viability and wells with untreated cells at 100% viability. Viability was plotted using Graphpad prism software (see FIG. 20).

The next test relates to MDA-MB-231 (Her2-) cells. The test can be described thus: In vitro cytotoxicity of ADCs, Example c3 (resazurin cell viability, 5 days). The format is cell-based. The following applies: ADC, 5 days incubation, 1 pM to 10 nM. The method, then:
as §1, with “BT-474 (Her2 3+), SK-OV-3” for “SK-OV-3”, “3+)” for “3+), NCI-N87 (Her2 3+), JIMT-1 (Her2 1+)”, “(Her2-)” for “(Her2−)”, “21).” for “17).”

A further test concerns MDA-MB-231 (Her2−) cells. The experiment in a line: In vitro cytotoxicity of ADCs, Example c2 (resazurin cell viability, 5 days). To be noted: ADC, 5 days incubation, 1 pM to 10 nM. The format is cell-based. Here is the method:
as §1

In the case of trast-9d, the half-inhibitory concentration (IC50) is 0.207 nM in the test on NCI-N87 (Her2 3+) cells and 0.287 nM with SK-OV-3 (Her2 3+) cells [1].

Regarding trast-36, the IC50 with JIMT-1 (Her2 1+) cells turned out to be 0.015 nM; with NCI-N87 (Her2 3+) cells it was 0.086 nM.

As for trast-9c, the IC50 with JIMT-1 (Her2 1+) cells was 0.145 nM; in the test with NCI-N87 (Her2 3+) cells, 0.179 nM; with SK-OV-3 (Her2 3+) cells [1], 0.211 nM.

Consider trast-63b, for which the “IC50 SK-OV-3 (HER2 3+)” value with SK-OV-3 (Her2 3+) cells [2] was “No IC50”; with SK-OV-3 (Her2 3+) cells [2] (listed as trast-6b), “no accurate IC50 value could be calculated”. The IC50 in the test with BT-474 (Her2 3+) cells came to 0.39 nM.

In the case of `COc1cccc2c1C(=O)c1c(O)c3c(c(O)c1C2=O)C[C@@](O)(C(=O)CO)C[C@@H]3O[C@H]1C[C@H]2[C@H](O[C@@H]3[C@@H](OCCN=[N+]=[N-])OCCN32)[C@H](C)O1` [Compound 6b], the IC50 in the test with NCI-N87 cells was found to be 0.224 nM.

For trast-63a, half-maximal inhibition in the test on BT-474 (Her2 3+) cells (IC50) was put at 0.196 nM.

As to trast-75, inhibition in the test on SK-OV-3 (Her2 3+) cells [2] was half-maximal at 0.149 nM (IC50).

Take trast-9g [reference compound]: the half-inhibitory concentration (IC50) in the test with SK-OV-3 (Her2 3+) cells [2] was 0.057 nM; in the test with BT-474 (Her2 3+) cells, 0.043 nM; in the test on JIMT-1 (Her2 1+) cells, 0.046 nM; in the test on NCI-N87 (Her2 3+) cells, 0.039 nM; with SK-OV-3 (Her2 3+) cells [1], 0.097 nM. Further, the “IC50 MDA-MB-231 (HER2−)” value with MDA-MB-231 (Her2-) cells and with MDA-MB-231 (Her2−) cells was “No IC50” in each case.
